These results are taken from ChEMBL document CHEMBL1157126, “Synthesis and biological activity of N(4)-phenylsubstituted-6-(2,4-dichloro phenylmethyl)-7H-pyrrolo[2,3-d]pyrimidine-2,4-diamines as vascular endothelial growth factor receptor-2 inhibitors and antiangiogenic and antitumor agents” (Bioorg Med Chem, 2010).

By UniProt entry, the sequences of proteins in these tests, tags left out.
UniProt P09619, whole entry: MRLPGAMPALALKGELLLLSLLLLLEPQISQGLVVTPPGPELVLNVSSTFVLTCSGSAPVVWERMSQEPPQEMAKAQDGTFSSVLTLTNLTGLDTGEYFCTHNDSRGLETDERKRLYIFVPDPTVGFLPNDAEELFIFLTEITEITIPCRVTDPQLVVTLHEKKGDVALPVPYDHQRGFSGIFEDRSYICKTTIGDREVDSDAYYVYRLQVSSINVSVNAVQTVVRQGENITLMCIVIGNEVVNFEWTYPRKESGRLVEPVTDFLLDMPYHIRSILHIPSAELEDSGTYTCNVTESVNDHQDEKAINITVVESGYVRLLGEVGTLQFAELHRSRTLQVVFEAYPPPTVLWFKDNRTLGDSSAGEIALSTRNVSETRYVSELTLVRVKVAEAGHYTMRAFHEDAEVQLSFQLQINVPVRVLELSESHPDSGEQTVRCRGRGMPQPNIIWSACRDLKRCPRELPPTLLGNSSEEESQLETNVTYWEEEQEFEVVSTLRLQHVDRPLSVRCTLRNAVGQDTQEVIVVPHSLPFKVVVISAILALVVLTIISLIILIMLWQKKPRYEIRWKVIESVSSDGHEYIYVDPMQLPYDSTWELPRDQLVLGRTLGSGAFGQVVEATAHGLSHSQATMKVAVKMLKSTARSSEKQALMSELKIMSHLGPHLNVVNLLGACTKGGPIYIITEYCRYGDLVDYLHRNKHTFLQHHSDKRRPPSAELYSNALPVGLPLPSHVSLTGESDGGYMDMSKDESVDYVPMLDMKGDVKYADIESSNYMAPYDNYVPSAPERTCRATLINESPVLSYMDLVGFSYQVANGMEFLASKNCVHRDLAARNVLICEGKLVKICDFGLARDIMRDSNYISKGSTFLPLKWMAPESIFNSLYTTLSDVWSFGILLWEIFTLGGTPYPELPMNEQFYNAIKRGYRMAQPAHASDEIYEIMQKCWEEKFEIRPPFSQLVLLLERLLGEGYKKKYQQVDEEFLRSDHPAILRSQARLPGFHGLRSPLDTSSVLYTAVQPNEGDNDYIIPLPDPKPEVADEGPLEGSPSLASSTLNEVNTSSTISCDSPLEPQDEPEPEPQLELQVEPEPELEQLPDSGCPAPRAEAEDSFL

This assay deals with Platelet-derived growth factor receptor beta (Homo sapiens, UniProt P09619). In words: Inhibition of PDGFRbeta phosphorylation in human SF539 cells after 10 mins by FLISA.

Broadly, the IC50 is the concentration at which inhibition is half-maximal. High values mean weaker potency, low ones greater potency. Compound `CN(C)c1ccc(/C=C2\C(=O)Nc3ccccc32)cc1` registered an IC50 of 3.7 µM.
